scFv variants of Ab-14 (light chain) against a SARS-CoV-2 spike peptide

Source: Li et al. 2023 (doi:10.1038/s41467-023-39022-2), MIT Lincoln Laboratory and A-Alpha Bio; data file from the FLAb repository.

Binding partner: SARS-CoV-2 spike HR2 peptide, sequence PDVDLGDISGINAS.

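The parent was found by panning a naive human phage display library on the peptide. These sequences belong to a second round, designed from the earlier measurements on random variants of the parent. Their group label is 14L_GP_Gibbs (GP: Gaussian process model; Gibbs: Gibbs sampling; a sequence that several methods proposed may carry one label only). The scFvs were displayed on barcoded MATa yeast, the peptide on MATalpha yeast. The frequency of each diploid, read from paired DNA barcodes, reflects how well the two displayed proteins bind. The ratio of observed to expected reads was calibrated, replicate by replicate, on BCL2-family standards whose Kd was known from biolayer interferometry. There are six technical replicates.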

Ab-14 is the parent antibody, in scFv form: VH, then three GGGGS repeats, then VL. The heavy chain is unchanged in all variants.
VH: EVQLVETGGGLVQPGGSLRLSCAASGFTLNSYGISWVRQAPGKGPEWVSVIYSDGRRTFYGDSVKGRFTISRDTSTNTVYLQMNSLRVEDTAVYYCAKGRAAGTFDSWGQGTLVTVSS
VL: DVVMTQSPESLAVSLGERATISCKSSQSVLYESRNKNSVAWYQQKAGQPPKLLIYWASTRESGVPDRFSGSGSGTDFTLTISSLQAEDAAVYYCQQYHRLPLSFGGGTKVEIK

Each variant is given by its three light chain CDRs, as the data file delimits them; those of the parent are KSSQSVLYESRNKNSVA, WASTRES, QQYHRLPLS. The read-out is the apparent dissociation constant on a log10 scale (nM): the lower, the stronger. An entry "ND" has no value in the source: the pair was not observed among the diploids in that replicate. This suggests poor binding but is not conclusive. A sequence measured in both rounds can read differently, since the two assays cover different ranges. Background: pairings of all light chain designs with three empty control strains gave a value in 4% of cases (median 2.64, 5th percentile 1.59). Values in that range, when seen in few replicates, are hard to tell from nonspecific mating. For each scFv, signals with the empty controls are counted beside the result, with their mean in brackets. The parent sequence was in this pool as ten entries: three were never detected, three once, and four in most replicates, with averages from 0.34 to 2.37. The authors' rule: three or more of the six replicates give a measured affinity, fewer mean a poor binder.

CDR-L1 | CDR-L2 | CDR-L3 | log10 Kd (nM) by replicate | signal with controls
KQSQSFLYESRNSNSVA | DASQRED | QDYHRLPLM | 0.35 0.51 0.74 0.20 0.41 0.87 | 1/18 (1.90)
KVSQLDNGESRNKNSVA | HASTRLS | QQYHRLPLS | 0.97 0.51 0.41 0.38 0.68 0.57 | 0/18
KWSQGVMGESRNKNSVA | DASTRES | QQYERLPLS | 0.07 0.32 0.00 -0.06 0.13 0.54 | 0/18
KLQMMVEMESRNKNSVA | SASTRLS | QQYHRLPLS | -0.16 -0.23 0.09 -0.32 -0.12 -0.03 | 0/18
KWLQSVLLESRNSNSVA | NASTREL | QQYHRLPLS | ND ND ND ND ND 1.91 | 0/18
KIQQSELYEDRQKNSVA | NASDRMS | QQYHRLPLS | 0.26 0.00 -0.04 0.04 0.05 0.20 | 0/18
KVSQSNGYESRMKNSVA | NASQRES | QQYHRLPLS | 0.19 0.12 0.04 0.06 0.09 0.05 | 5/18 (3.63)
KVSWEDLLWSRNWNQVA | EASTRES | QQYHRLPLS | 1.13 0.91 0.91 1.35 0.70 1.18 | 0/18
HLEQSSLYESRNKNSVA | NASQRCS | QQYHRLPLS | 0.17 0.17 0.06 -0.09 0.05 0.21 | 1/18 (2.59)
KLPFSCLYESRNKNSVA | MASTRCS | QQYHRLPLS | 0.96 0.82 0.85 0.74 0.75 0.58 | 1/18 (3.21)
KFEQSWWYESRVKNNVA | NASQRES | QQYHRLPLS | 0.79 0.49 0.64 0.46 0.73 0.75 | 3/18 (4.06)
KAQDGELYESRDWNSVA | DASKRLS | QQYHRLPLS | 0.27 0.20 0.16 -0.06 0.14 0.02 | 1/18 (2.04)
KSSISSLYEDRNDNSVA | NASQREH | QQYHRLPLS | 0.53 0.22 0.12 0.14 0.43 0.37 | 2/18 (2.81)
KSSQSVMGEERNKNSVA | AASTREV | QQYHRLPLS | 0.39 0.33 0.36 0.11 0.37 0.92 | 2/18 (3.21)
KLDQSWLYGSRNKNSVA | NASERER | QQYHRLPLS | 0.46 0.57 1.08 0.45 0.46 0.97 | 0/18
KLQFSCEYESRNKNSVA | MASTRCD | QQYHRLPLS | 1.44 1.08 1.17 0.58 0.88 1.23 | 0/18
KLSWSWLYESRNWNSVA | DASTRES | QQYHRLPLS | 0.25 0.18 -0.07 -0.64 -0.42 0.04 | 0/18
KYSFSDGNESRNKNSVA | DASTRES | QQYHRLPLS | 0.01 -0.27 -0.17 -0.22 -0.29 -0.07 | 0/18
KQSQSQLYEDGNGNSVA | NASVRED | QQYHRLPLS | 1.23 1.51 1.50 0.74 1.86 1.37 | 0/18
KLSPSWLGEERNDNSVA | NASTRES | QQYHRLPLS | 0.47 0.44 0.14 0.16 0.24 0.21 | 1/18 (2.27)
KLEQSELYQSRNKQSVA | NASERES | QQYHRLPLS | 0.67 0.71 0.95 0.86 0.62 0.90 | 0/18
KLSQSVEYQSRDKNAVA | NAQTRES | QQYHRLPLS | -0.14 -0.27 -0.45 -0.31 -0.42 -0.19 | 1/18 (2.60)
KHSPSEEYESRDKNSVA | HASTRMS | QQYHRLPLS | 0.64 0.46 0.24 0.42 0.21 0.38 | 0/18
KYSTSELEESRNKNSVA | WASTREE | QQYHRLPLS | 2.22 ND 1.62 2.98 1.88 2.08 | 1/18 (2.04)
KLYFSEEYGSRNKNSVA | SASQRES | QQYHRLPLS | 0.20 0.38 0.49 0.88 0.39 0.68 | 0/18
KSQQSWEYESRNSNSVA | QASTRMV | QQYHRLPLI | 0.08 -0.12 -0.11 -0.06 -0.29 -0.01 | 1/18 (2.35)
KLSQSTLYEQRNTNSVA | QASQRES | QQYHRLPLS | 0.09 0.08 0.43 0.25 0.32 0.75 | 0/18
KCDQSWDYESRNKNNVA | NASQRED | QQYHRLPLS | -0.25 -0.39 -0.36 -0.54 -0.51 -0.37 | 2/18 (2.91)
KLDQSQLYQSRNKQSVA | NASQRES | QQYHRLPLS | -0.16 -0.29 -0.22 -0.43 -0.40 -0.05 | 0/18
KLSQQDEYESRNKNSVA | HASCREQ | QQYHRLPLS | 0.30 0.47 0.19 0.14 -0.08 0.24 | 2/18 (2.86)
KLSMSWEYESRNSNSVA | HASTRED | QQYHRLPLA | 0.44 0.30 -0.09 0.56 0.49 0.08 | 0/18
KLQFSCLYESRMPNSVA | NASTRYS | QQYHRLPLS | 0.26 0.04 0.07 -0.05 0.19 0.19 | 1/18 (1.85)
KQQQEWDGQSRNKNSVA | HASKRES | QQYHRLPLS | 1.01 0.59 1.02 1.01 1.38 0.95 | 2/18 (2.91)
LLPQSMEYESRNKQSVA | AASTRES | QQYHRLPLS | 0.36 0.34 0.27 0.33 0.15 0.37 | 1/18 (2.63)
WLSMSVMLESRNVNSVA | SASTREE | QQYHRLPLS | 1.05 1.30 0.99 1.37 1.68 1.43 | 0/18
KVSWEDLLQSRNKGQVA | EASTRES | QQYHRLPLS | 0.73 0.64 0.46 0.14 1.05 0.63 | 1/18 (1.76)
KFVQSWGYESRNKNAVA | HASTRCS | QQYHRLPLS | 0.49 0.58 0.55 0.30 0.57 0.47 | 2/18 (2.59)
KFSQSVGYESRNKNSVA | NAQTRMD | QQYHRLPLS | 0.49 0.59 0.46 0.61 0.36 0.27 | 0/18
KLSQSQLYESRNSNSVA | DASNRES | QQYHRLPLS | -0.21 -0.23 -0.06 -0.33 -0.30 -0.02 | 1/18 (3.24)
KVQQLEPYESRNKNSVA | NASTREE | QQYHRLPLS | 0.38 0.27 0.10 0.16 0.44 0.28 | 1/18 (4.21)
KLMQSVEQLSRNKNSVA | HASLREV | QAYHRLPLS | 0.88 0.74 1.11 0.64 0.86 0.86 | 1/18 (3.79)
KSQQSVLDEERNDNSVA | WASHRLS | QQYHRLPLS | 0.91 0.89 1.18 0.64 1.71 1.07 | 0/18
KAQQSDLYESRNKNSVA | SASTRSS | QQYHRLPLS | 0.04 -0.01 0.02 -0.19 -0.10 -0.01 | 1/18 (3.46)
KSSQSVLYEDGNKNSVA | HASVRED | QQYHRLPLM | 2.24 1.75 ND 1.11 1.67 1.02 | 0/18
KVSQCNGGESRMKNSVA | HASQRES | QQYHRLPLS | 0.52 0.93 0.82 0.53 0.77 0.87 | 1/18 (3.01)
KVSQSVLMESCNVNSVA | YASTRED | QQYHRLPLS | 1.62 1.36 1.28 1.01 0.76 0.95 | 0/18
KLQMSAEYGSRNKNSVA | SASQRES | QQYHRLPLS | -0.13 -0.38 -0.35 -0.52 -0.45 -0.21 | 2/18 (2.48)
KLDQSDLMESRNWNAVA | SASTREI | QQYHRLPLS | 0.82 0.61 0.86 0.16 0.72 0.66 | 0/18
KCEQSWWYESRVKNNVA | NASQRES | QQYHRLPLS | 0.87 0.50 0.52 0.79 0.52 0.92 | 1/18 (3.05)

For reference, 7 entries of the list once more:

CDR-L1 | CDR-L2 | CDR-L3 | log10 Kd (nM) by replicate | signal with controls
KLSWSWLYESRNWNSVA | DASTRES | QQYHRLPLS | 0.25 0.18 -0.07 -0.64 -0.42 0.04 | 0/18
KWSQGVMGESRNKNSVA | DASTRES | QQYERLPLS | 0.07 0.32 0.00 -0.06 0.13 0.54 | 0/18
KLSQSTLYEQRNTNSVA | QASQRES | QQYHRLPLS | 0.09 0.08 0.43 0.25 0.32 0.75 | 0/18
KAQDGELYESRDWNSVA | DASKRLS | QQYHRLPLS | 0.27 0.20 0.16 -0.06 0.14 0.02 | 1/18 (2.04)
KVQQLEPYESRNKNSVA | NASTREE | QQYHRLPLS | 0.38 0.27 0.10 0.16 0.44 0.28 | 1/18 (4.21)
KLSPSWLGEERNDNSVA | NASTRES | QQYHRLPLS | 0.47 0.44 0.14 0.16 0.24 0.21 | 1/18 (2.27)
KLDQSWLYGSRNKNSVA | NASERER | QQYHRLPLS | 0.46 0.57 1.08 0.45 0.46 0.97 | 0/18